Screening data deposited in PubChem BioAssay by ICCB-Longwood Screening Facility, Harvard Medical School.
GIV-Gai inh = inhibitors of GIV peptide binding to Galpha-i3, primary screen, biochemical, fluorescence polarization, FITC-GIV GBA peptide, rat Galphai3 | Guanine nucleotide-binding protein G(i) subunit alpha-3 (Rattus norvegicus), P08753 | 90 min; active compounds read low; scaled: aluminum fluoride 0%, vehicle 100% | 210,000 tested, 0.42% active | AID 1224905, 2016 | percent of control (FP), % (no concentration beside the values);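 active means replicate mean at 85% of control or lower, very high polarization wells dropped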;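 further: wells of about 15 µL received 100 nL stock; the first replicate is given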
HCMV NEC inh = inhibitors of HCMV UL50-UL53 nuclear egress complex interaction; 190,000 compounds, 0.15% hits; HTRF UL50-UL53 interaction, normalized percent inhibition; inhibition, % (test concentration not listed); in the data active = inhibition above about 27%, passing the limit was not always enough
GIV-Gai FP conf = GIV-Galpha-i3 inhibition, FP confirmation. shares compounds with GIV-Gai inh. FITC-GIV peptide binding to Galphai3, fluorescence polarization; hits give low values. fluorescence polarization, mP at 100 µM. 580 compounds, 38% hits. AID 1259350;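 active = inhibition score of 15 or more, meaning 100 minus mean polarization as percent of control over three replicates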;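 note: lower mP means peptide displaced from Galphai3 so more inhibition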
GIV-Gai AS conf = GIV-Galpha-i3 inhibition, AlphaScreen confirmation; shares compounds with GIV-Gai inh; AlphaScreen counts at 100 µM; AlphaScreen Galphai3-GIV binding, purified proteins, 90 min; hits give low values; AID 1259351; 580 compounds, 39% hits;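 active = inhibition score at or above a set limit, where the score is 100 minus the three-replicate mean percent of control signal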
An asterisk follows results filed as active; . = no result given. This is a sample that favours compounds with a hit; in the whole collection about 0.43% have one here.

Chains of the proteins cited; added tags and fusions are not shown.
Guanine nucleotide-binding protein G(i) subunit alpha-3 (Rattus norvegicus), P08753, UniProt P08753, whole entry, looked up: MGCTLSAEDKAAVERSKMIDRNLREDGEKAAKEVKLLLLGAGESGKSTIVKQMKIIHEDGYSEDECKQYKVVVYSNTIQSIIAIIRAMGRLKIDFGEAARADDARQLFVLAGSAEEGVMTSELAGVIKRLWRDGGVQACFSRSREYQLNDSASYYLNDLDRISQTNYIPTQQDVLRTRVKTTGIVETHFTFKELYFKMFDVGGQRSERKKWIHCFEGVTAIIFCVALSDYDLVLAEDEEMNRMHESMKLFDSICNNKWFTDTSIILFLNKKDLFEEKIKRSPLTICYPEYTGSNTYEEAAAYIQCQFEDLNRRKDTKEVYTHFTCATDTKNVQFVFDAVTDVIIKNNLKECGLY

Preview, two compounds:
SMILES | GIV-Gai inh | HCMV NEC inh | GIV-Gai FP conf | GIV-Gai AS conf
COc1ccccc1N1CCN(C(=O)c2cnn3c(C)c(Cc4ccccc4Cl)c(C)nc23)CC1 | 106 | . | . | .
CCOc1ccc(NC(=O)CSC2=C(C#N)C(c3ccc(Cl)cc3)C(C(=O)OC(C)(C)C)=C(C)N2)cc1 (configuration not stated) | 105 | 3 | . | .

All compounds of this part, previewed entries included:
SMILES | GIV-Gai inh | HCMV NEC inh | GIV-Gai FP conf | GIV-Gai AS conf
COc1ccccc1N1CCN(C(=O)c2cnn3c(C)c(Cc4ccccc4Cl)c(C)nc23)CC1 | 106 | . | . | .
CCOc1ccc(NC(=O)CSC2=C(C#N)C(c3ccc(Cl)cc3)C(C(=O)OC(C)(C)C)=C(C)N2)cc1 (configuration not stated) | 105 | 3 | . | .
COc1ccc(-c2nc(N3CCC(C)CC3)nc3nn4c(C)cc(C)nc4c23)cc1 | 88 | -18 | 66 | 41938
Cc1cc(C)n2nc3nc(N4CCCC4)nc(-c4ccccc4)c3c2n1 | 105 | 0 | . | .
Cc1c(C=Nc2ccc(Cl)cc2)c(O)n(C)c(=O)c1C#N | 108 | -35 | . | .
Cc1c(C=Nc2ccc(SC#N)c(Cl)c2)c(O)[nH]c(=O)c1C#N | 49* | -16 | 74 | 40787
Clc1ccc(CCNc2ncnc3c2nc2n3CCCC2)cc1 | 107 | -21 | . | .
CCOC(=O)/C(C#N)=C/c1ccc(-c2ccc(Br)cc2)o1 | 105 | 12 | . | .
CCOC(=O)/C(C#N)=C/c1ccc(-c2ccc(Cl)c(C(=O)OC)c2)o1 | 65* | 0 | 76 | 22310
COc1ccc(NC(=O)c2ccc(CNc3c(N4CCCCC4)c(=O)c3=O)cc2)cc1OC | 98 | -35 | . | .

3 compounds from above, showing only GIV-Gai inh.
smiles	GIV-Gai inh
Cc1cc(C)n2nc3nc(N4CCCC4)nc(-c4ccccc4)c3c2n1	105
Cc1c(C=Nc2ccc(Cl)cc2)c(O)n(C)c(=O)c1C#N	108
Cc1c(C=Nc2ccc(SC#N)c(Cl)c2)c(O)[nH]c(=O)c1C#N	49*

New compounds follow
SMILES | GIV-Gai inh | HCMV NEC inh | GIV-Gai FP conf | GIV-Gai AS conf
N#C/C(=C\C=C\c1ccco1)C(N)=S | 78* | 51 | 50* | 2145*
N#CC(C#N)=C(N)/C(C#N)=C/c1ccco1 | 112 | -69 | . | .
CS(=O)(=O)N1CCCN(Cc2ccsc2)CC1 | 101 | . | . | .
CCOCCCNC(=O)Nc1c(C)nc2nc[nH]n2c1=O | 103 | -23 | . | .
COc1ccc(-n2c3nc(=O)[nH]c(=O)c-3cc3ccccc32)cc1 | 71* | . | 64 | 8986*
Cc1ccc(-n2c3nc(=O)[nH]c(=O)c-3cc3ccccc32)cc1Cl | 105 | . | . | .
CCC(C)(C)c1ccc(OCCCCNC(=O)c2cccc(C(=O)NCCCCOc3ccc(C(C)(C)CC)cc3C(C)(C)CC)c2)c(C(C)(C)CC)c1 | 101 | . | . | .
O=C(NCCCO)Nc1ccc2nc(-c3ccco3)c(-c3ccco3)nc2c1 | 81* | 1 | 58* | 1698*
O=C(Nc1ccc(N2CCOCC2)cc1)Nc1ccc2nc(-c3ccco3)c(-c3ccco3)nc2c1 | 97 | -38 | . | .
COc1ccc(-c2nc(-c3ccc4c(c3)[nH]c(=O)c(=O)n4C)no2)cc1OC | 86 | 4 | 81 | 27124
COc1ccc(-c2nc(-c3ccc4c(c3)[nH]c(=O)c(=O)n4C)no2)cc1 | 103 | 16 | . | .
Clc1ccc(CCN2COc3ccc(Cl)cc3C2)cc1 | . | -34 | . | .
CCC(C)NC(=O)c1[nH]c2cc(C)ccc2c1Sc1ccc(Cl)cc1 (configuration not stated) | 101 | -14 | . | .
Cc1ccc2c(Sc3ccc(Cl)cc3)c(C(=O)NC(C)C)[nH]c2c1 | 57* | -16 | 60 | 42527
Cc1cc(I)ccc1NC(=O)C1CC(O)CN1C(=O)Oc1ccccc1 (configuration not stated) | 105 | . | . | .
Cc1ccc(C)n1-c1ccc(SCC(=O)O)cc1 | 6.4* | 56* | 17* | 2022*
COc1ccc(SCC(=O)O)cc1 | . | -16 | . | .
O=C(CSc1nnc2ccccn12)Nc1ccc(N2CCCCC2)cc1 | . | -33 | . | .
O=C(O)c1ccc(CS(=O)(=O)c2ccccc2)o1 | 77* | . | 55 | 2163*
NNC(=O)c1ccc(CS(=O)(=O)c2ccccc2)o1 | . | 5 | . | .

Single records (already shown). Order of screens: GIV-Gai inh, HCMV NEC inh, GIV-Gai FP conf, GIV-Gai AS conf
Cc1c(C=Nc2ccc(Cl)cc2)c(O)n(C)c(=O)c1C#N across the screens: 108, -35, ., .
Clc1ccc(CCN2COc3ccc(Cl)cc3C2)cc1 across the screens: ., -34, ., .

Continuation.
SMILES | GIV-Gai inh | HCMV NEC inh | GIV-Gai FP conf | GIV-Gai AS conf
O=C(NCC1CC1)c1cccn2c(-c3ccc(F)cc3)nnc12 | 106 | . | . | .
O=C(O)c1cc(NS(=O)(=O)c2ccc3c(c2)CCCC3)cnc1N1CCC(N2CCCCC2)CC1 | 80* | -24 | 50* | 27614
CC(C)(C)c1ccc(S(=O)(=O)Nc2cnc(N3CCNCC3)c(C(=O)N3CCCC3)c2)cc1 | 106 | . | . | .
O=C(O)c1cc(NS(=O)(=O)c2ccc3c(c2)CCCC3)ccc1N1CCN(C2CCCCC2)CC1 | 107 | -12 | . | .
O=C(O)c1cc(NS(=O)(=O)c2ccc(F)cc2)cnc1N1CCCC1 | 77* | -57 | 47* | 18634*
Clc1ccc(-c2ccc(CNCc3ccncc3)o2)c(Cl)c1 | 111 | -30 | . | .
OC1(c2ccco2)CSC(=Nc2cccnc2)N1C1CC1 (configuration not stated) | . | -8 | . | .
Cc1ccccc1-c1nn2c(=O)cc(N3CCN(C(=O)Nc4cccc(Cl)c4C)CC3)nc2s1 | 100 | 28 | . | .
Cc1ccc(NC(=O)N2CCN(c3cc(=O)n4nc(-c5ccccc5C)sc4n3)CC2)c(Cl)c1 | 92 | 5 | 81 | 28227
CCC1(CC)Cc2ccccc2C(N2CCOCC2)=N1 | 118 | . | . | .
COCCn1c(SCc2nc(-c3ccc(F)cc3)no2)nc2cc3c(cc2c1=O)OCO3 | 108 | . | . | .
COc1ccc(NC(=O)c2sc3nc4n(c(=O)c3c2C)CCC4)cc1Cl | 83* | 3 | 80 | 33472
COc1cc(NC(=O)c2sc3nc4n(c(=O)c3c2C)CCCCC4)cc(OC)c1OC | 104 | -8 | . | .
Cc1ccc(C)c(CN2C(=O)C(C)CNc3ccccc32)c1 (configuration not stated) | 105 | 2 | . | .
O=C(NCCc1ccccc1)C1CCN(c2cnccn2)CC1 | 102 | -19 | . | .
O=C(NC1CCN(Cc2ccccc2)CC1)C1CCN(c2cnccn2)CC1 | 67* | -14 | 62 | 43938
Cc1cc(=O)nc2c3ccccc3n(CC(=O)NCc3cccc(Cl)c3)n12 | 109 | -2 | . | .
O=C1CC(c2ccco2)CC(O)=C1C=NCCN1CCN(C2OC(=O)c3ccccc32)CC1 (configuration not stated) | 107 | -37 | . | .
COc1ccc(C2CC(=O)C3=C(C2)Nc2onc(C)c2C3c2ccc(OC)c(OC)c2)cc1OC (configuration not stated) | 110 | -17 | . | .
Cc1cc(C)cc(C(=O)Nc2ccc(-c3nc4ncccc4o3)cc2)c1 | 82* | -39 | 81 | 27053
Cc1cc(C)c2oc(-c3ccc(NC(=O)COc4ccccc4C)cc3)nc2c1 | 105 | -56 | . | .
Cc1ccc(C(C)C)c(OCC(=O)Nc2cc(-c3nc4ncccc4o3)ccc2C)c1 | 88 | . | 62 | 43747
Cc1ccc(C(C)C)c(OCC(=O)Nc2cccc(-c3nc4ncccc4o3)c2)c1 | 108 | -68 | . | .
Cc1ccc(OCC(=O)Nc2ccc(-c3nc4ccccc4o3)cc2)c(C)c1 | 93 | 11 | 74 | 32376
O=C(Nc1ccc(-c2nc3ncccc3o2)cc1)c1ccccc1 | 107 | . | . | .
O=S(=O)(/C=C/c1ccccc1)NCc1ccco1 | . | -33 | . | .
CCOCCOC(=O)C1=C(C)NC2(O)c3ccccc3C(=O)C12O (configuration not stated) | 104 | . | . | .
CCOC(=O)C1=C(C)OC2(O)c3ccccc3C(=O)C12O (configuration not stated) | 80* | -4 | 64 | 48826
Cc1cc(C(F)(F)F)c(C#N)c(=O)[nH]1 | 40* | . | 66 | 51023
Cc1cc(C(F)(F)F)[nH]c(=O)c1C#N | . | -10 | . | .
CC(C)(O)CC1(CO)CCCCC1 | 92 | -4 | 68 | 46516
COc1ccccc1C(c1c(C)[nH]n(-c2ccccc2)c1=O)c1c(C)[nH]n(-c2ccccc2)c1=O | 74* | . | 66 | 42679
Cc1[nH]n(-c2ccccc2)c(=O)c1C(c1cccc(O)c1)c1c(C)[nH]n(-c2ccccc2)c1=O | 66* | . | 51* | 11539*
